Reference: PubChem BioAssay AID1656 (Sanford-Burnham Center for Chemical Genomics, 2009)
The list shows a part of the results, in another mix than the full data. Active and inactive are the calls of the source.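 The calls were made as follows: active = lipid droplet intensity inhibited by at least 50%, with more than 500 cells counted; inconclusive = wells with under 300 cells, treated as cytotoxic; inactive = the rest.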

Assay: oleate-induced lipid droplet accumulation in AML12 cells – imaging, high-throughput imaging, BODIPY stain, primary screen (AID 1656)
Conditions: AML12 mouse hepatocytes, oleate lipid droplets, at 6.5 µM, stronger effect = higher value

Structure (SMILES) | inhibition
O=[N+]([O-])c1ncn(CCn2ncnc2[N+](=O)[O-])n1 | inactive: -2.3%
CC(C)(C)C(=O)NC(Sc1ccncn1)C(Cl)(Cl)Cl (stereo not given) | inactive: 0.8%
O=C(O)CNc1ccc([As](=O)(O)O)cc1 | inactive: 9%
O=[N+]([O-])c1cccc(NC2=NCC(CBr)S2)c1 (stereo not given) | inactive: -10%
CP(=O)(OC12CC3CC(CC(C3)C1)C2)OC12CC3CC(CC(C3)C1)C2 | inactive: -25.6%
CCOC(=O)c1ccc(NP(C)(=O)Oc2ccc(Cl)cc2)cc1 (stereo not given) | inactive: -7.3%
O=C(Nc1cc([As](=O)(O)O)ccc1O)c1ccccc1 | inactive: 22.8%
CP(=S)(Nn1cnnc1)Oc1ccccc1 (stereo not given) | inactive: -0.2%
CCOC(=O)Nc1cccc([As](=O)(O)O)c1 | inactive: -1%
O=P(Nc1ccccn1)(c1cccc2ccccc12)c1cccc2ccccc12 | inactive: -5.8%
Cc1cc(SC(NC=O)C(Cl)(Cl)Cl)ncn1 (stereo not given) | inactive: -0.9%
COc1ccccc1OP(C)(=O)Nc1ccccc1 (stereo not given) | inactive: -0.8%
CP(=O)(Nc1ccccc1Br)Oc1ccccc1 (stereo not given) | inactive: 27.2%
O=[N+]([O-])c1ccc(Nc2ccc(Oc3ccc([N+](=O)[O-])cc3[N+](=O)[O-])cc2)c([N+](=O)[O-])c1 | inactive: 30.6%
CCOC(=O)Nc1ccc([As](=O)(O)O)c(O)c1 | inactive: -6.4%
CCCCOc1ccc(C(=O)NCC2(N3CCCCC3)CCCCC2)cc1OC | inactive: 0.2%
Cc1cc(SC(NC(=O)c2ccccc2)C(Cl)(Cl)Cl)nc(C(C)C)n1 (stereo not given) | inactive: -21.2%
O=C(OC1CN2CCC1CC2)c1cccc([N+](=O)[O-])c1 (stereo not given) | inactive: 5.8%
CCOC(=O)c1ccc(NC(=O)C(C)(CCl)SC)cc1 (stereo not given) | inactive: 19.1%
CCOC(=O)c1ccc(NP(C)(=O)Oc2ccc(OC)cc2)cc1 (stereo not given) | inactive: -50.4%
CCC(C)N(CC(C)C)C(=S)SC(NC(C)=O)C(Cl)(Cl)Cl (stereo not given) | inactive: -0.5%
CP(=O)(Nc1ccccn1)Oc1ccc(Cl)cc1 (stereo not given) | inactive: 5.1%

Structure (SMILES) | inhibition
COP1(=S)c2c(C)nn(CCC#N)c2N=C(c2ccc(F)cc2)N1C (stereo not given) | inactive: -0.2%
Cc1cccc(C)c1OP(C)(=O)Nc1ccc(SC(F)(F)F)cc1 (stereo not given) | inactive: -0.3%
CP(=O)(Oc1ccccc1)OC(c1ccccc1)C(F)(F)F (stereo not given) | inactive: -25.4%
O=C(COc1ccccc1)OC1CN2CCC1CC2 (stereo not given) | inactive: 0.1%
CCc1ccc(OP(C)(=O)N2CCN(c3ccc([N+](=O)[O-])cc3)CC2)cc1 (stereo not given) | inactive: 10.6%
Cc1cc(C)cc(OP(C)(=O)Nc2ccc(SC(F)(F)F)cc2)c1 (stereo not given) | inactive: -0.7%
O=C(Nc1ccncc1[N+](=O)[O-])c1ccc([N+](=O)[O-])cc1[N+](=O)[O-] | inactive: 5.6%
COc1ccc(N/C(=N/P(=O)(N2CCOCC2)N2CCOCC2)N2CCOCC2)cc1 | inactive: -13.2%
Cc1c2c(nc3ccccc13)SC(C(Cl)Cl)C2 (stereo not given) | inactive: -1.9%
Cc1cc(=O)[nH]c(N[N+](=O)[O-])n1 | inactive: -0.5%
CCN(CC)CCCOC(=O)C(O)(c1ccccc1)c1ccccc1 | inactive: 3.8%
COc1ccc2nc(NP(=O)(c3ccccc3)c3ccccc3)sc2c1 | inactive: 2.5%
COc1cc(I)ccc1[As](=O)(O)O | inactive: -6%
CCOC(=O)c1ccc(NP(C)(=O)Oc2ccccc2)cc1 (stereo not given) | inactive: -9.9%
ClCCSc1nnc(-c2cccnc2)o1 | inactive: -0.7%
Cc1ccc(NP(C)(=O)Oc2ccccc2)c(C)c1 (stereo not given) | inactive: -8.8%
CC(C)c1ccc(OP(=O)(Nc2ccccn2)Oc2ccccc2F)cc1 (stereo not given) | inactive: -9.6%
COc1ccccc1OP(C)(=O)Nc1cc(Cl)ccc1C (stereo not given) | inactive: -5.3%
CC(C)NC(=O)NP(=O)(Oc1ccccc1)Oc1ccccc1 | inactive: 8.5%
COc1ccc(OP(C)(=O)Nc2cccc(F)c2)cc1 (stereo not given) | inactive: -8.3%
O=[N+]([O-])c1cc([N+](=O)[O-])c(-c2ccn[nH]2)s1 | inactive: -31.5%
Cc1cc(C)cc(OP(C)(N)=O)c1 (stereo not given) | inactive: -1%

Structure (SMILES) | inhibition
O=[As](O)(c1ccc(O)cc1)c1ccccc1O | inactive: -10.2%
C[As](=O)(O)c1cccc(C(=O)O)c1 | inactive: -0.4%
Cc1ccc(OP(=O)(Nc2ccc([N+](=O)[O-])cn2)Oc2ccc(C)cc2)cc1 | inactive: 6%
CC(C)(C)c1ccc(OP(C)(=O)Nc2ccc(SC(F)(F)F)cc2)cc1 (stereo not given) | inactive: -20.8%
Cc1cccc(C)c1OP(C)(N)=O (stereo not given) | inactive: 23.4%
O=[N+]([O-])c1ccc2c(c1)C=Nc1ccccc1O2 | inactive: 8.1%
Cc1ccc2nc3c(c(C)c2c1)CC(C(Cl)Cl)S3 (stereo not given) | inactive: -19.1%
NC(=O)Nc1ccc([As](=O)(O)O)cc1 | inactive: -6.3%
CN(C(=O)Cc1ccccc1)[C@@H]1CC[C@]2(CCCO2)C[C@H]1N1CCCC1 | inactive: -24.8%
O=[N+]([O-])c1ccc2c(c1)nnn2O | inactive: -2.4%
CC1=NCCc2c1[nH]c1ccccc21.O=[N+]([O-])c1cc([N+](=O)[O-])c(O)c([N+](=O)[O-])c1 | inactive: -14.7%
CCOP1(=S)c2c(C)nn(CCC#N)c2N=C(c2ccccc2F)N1C (stereo not given) | inactive: 3.5%
O=C(O)c1cccc(Nc2c([N+](=O)[O-])cc([N+](=O)[O-])cc2[N+](=O)[O-])c1 | inactive: 12.4%
O=P(Nc1nccs1)(Oc1ccccc1)Oc1ccccc1 | inactive: 20.5%
O=P(Nc1nccs1)(c1ccccc1)c1nc2ccccc2s1 (stereo not given) | inactive: -4.1%
CS(=O)(=O)c1cc([N+](=O)[O-])c2no[n+]([O-])c2c1 | inactive: 1.6%
Nc1ccccc1[As](=O)(O)c1ccccc1 | inactive: 1.4%
O=C(O)COc1ccc([As](=O)(O)O)cc1[N+](=O)[O-] | inactive: -0.2%
Cc1cc(C)cc(OP(C)(=O)Nc2ccccn2)c1 (stereo not given) | inactive: 1.8%
CP(=O)(Nc1cccc(Br)c1)Oc1ccccc1 (stereo not given) | inactive: 0.4%
Cc1ccc(NCCc2c([N+](=O)[O-])cc([N+](=O)[O-])cc2[N+](=O)[O-])cc1 | inactive: 0.2%
